From patent publication US11414436B2, “Non-coordinating anion type activators containing cation having large alkyl groups” (ExxonMobil Chemical Patents Inc., priority 2018, dated 2022)

How the values were obtained:
[1] = Solubility studies of the activators (saturated solution in isohexane or methylcyclohexane); format: physicochemical; conditions: for Solubility limit in i-hexane (mM at 25° C.) / Solubility limit in i-hexane (wt % at 25° C.): isohexane; for Solubility limit in MeCy (mM at 25° C.): methylcyclohexane
Description: Solubility Studies of the Activators
Procedure for Solid Activators.
A saturated solution of each of the solid ammonium borate activators was prepared by stirring an excess of the activator with either isohexane or methylcyclohexane solvent for several hours at 25° C. The mixture was then filtered and a known volume of the filtrate was evaporated to dryness in a tared vial. The vial was then weighed to determine the mass of activator that was dissolved in the aliquot. The concentration of the saturated solution is presented in millimoles of activator per liter of solution (mM).
Procedure for Activators that Form Emulsions.
A saturated solution of the activator was prepared by slowly adding the solvent to a pre-weighed amount of the activator. The final volume was determined as the minimum amount of solvent required to convert the emulsion into a homogeneous solution. The concentration of the saturated solution is presented in millimoles of activator per liter of solution (mM). Alternatively, an emulsion of the activator was prepared by adding the solvent to an excess amount of activator. The resulting emulsion was separated from the undissolved solids by decanting the emulsion into a tared vial. Solvent was then added dropwise until the emulsion became homogeneous. The mass of the final solution was measured and then the solvent was evaporated to dryness to obtain the mass of the activator. The concentration of the saturated solution is presented in millimoles of activator per liter of solution (mM).

[2] = as above; format: physicochemical; conditions: methylcyclohexane

Question: For “Di(hydrogenated tallow)methylamine-BF20 [M2HTH-BF20]”, which “Solubility limit in i-hexane (mM at 25° C.)” value [1] is on record?
Answer: 9.6 mM

Question: What about the “Solubility limit in i-hexane (wt % at 25° C.)” value [1] of the same substance?
Answer: 1.7 wt %

Question: What about the “Solubility limit in MeCy (mM at 25° C.)” value [1] of the same substance?
Answer: 200 mM

Question: And the “Solubility limit in MeCy (wt % at 25° C.)” value [2]?
Answer: 31 wt %

Question: With “Di(hydrogenated tallow)methylamine-BF28 [M2HTH-BF28]” as the substance, how does the “Solubility limit in i-hexane (mM at 25° C.)” value [1] read?
Answer: 6.5 mM

Question: What about the “Solubility limit in i-hexane (wt % at 25° C.)” value [1] of the same substance?
Answer: 1.5 wt %

Question: What about the “Solubility limit in MeCy (mM at 25° C.)” value [1] of the same substance?
Answer: 120 mM

Question: What about the “Solubility limit in MeCy (wt % at 25° C.)” value [2] of the same substance?
Answer: 25 wt %

Question: With “N,N-Dimethylanilinium tetrakis(pentafluorophenyl)borate [DMAH-BF20, reference compound]” as the substance, how does the “Solubility limit in i-hexane (mM at 25° C.)” value [1] read?
Answer: <0.1 mM

Question: And the “Solubility limit in i-hexane (wt % at 25° C.)” value [1]?
Answer: <0.1 wt %

Question: And the “Solubility limit in MeCy (mM at 25° C.)” value [1]?
Answer: <0.1 mM

Question: And the “Solubility limit in MeCy (wt % at 25° C.)” value [2]?
Answer: <0.1 wt %

Question: Which “Solubility limit in i-hexane (mM at 25° C.)” value [1] does the source give for “N,N-dimethylanilinium tetrakis(heptafluoronaphthalen-2-yl)borate [DMAH-BF28, reference compound]” here?
Answer: <0.1 mM

Question: What about the “Solubility limit in i-hexane (wt % at 25° C.)” value [1] of the same substance?
Answer: <0.1 wt %

Question: What about the “Solubility limit in MeCy (mM at 25° C.)” value [1] of the same substance?
Answer: <0.1 mM

Question: And the “Solubility limit in MeCy (wt % at 25° C.)” value [2]?
Answer: <0.1 wt %

Question: What does the source list for “N-methyl-4-nonadecyl-N-octadecylanilinium tetrakis(perfluoronaphthalen-2-yl)borate [NOMAH-BF28]”?
Answer: Solubility limit in i-hexane (mM at 25° C.) [1]: >213 mM; Solubility limit in i-hexane (wt % at 25° C.) [1]: >52 wt %; Solubility limit in MeCy (mM at 25° C.) [1]: >227 mM; Solubility limit in MeCy (wt % at 25° C.) [2]: >49 wt %
